This is a selection; strong and weak results do not stand in their true shares. Activity calls are given as the source filed them. Cut-off read from the data, not from the text of the source: active = inhibition above about 21%; inactive = the rest.
Target: E3 ubiquitin-protein ligase UHRF1 (Homo sapiens) (UniProt Q96T88)
Experiment: blockers of UHRF1 binding to methyl-oligo – biochemical, TR-FRET, human UHRF1, single concentration, counter-screen for MBD2 inhibitor project, primary screen (AID 687016);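 note: UHRF1 SRA domain binding a hemimethylated CpG hairpin DNA probe; 0% = median of test compound wells and 100% = reference inhibitor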
Details: UHRF1 binding to methylated oligo, at 4.4 µM, hits give high values

Amino acid sequences for entries named in this document (tags omitted). A change or cut given only in a name is not applied to a line headed by its entry.
UniProt Q96T88: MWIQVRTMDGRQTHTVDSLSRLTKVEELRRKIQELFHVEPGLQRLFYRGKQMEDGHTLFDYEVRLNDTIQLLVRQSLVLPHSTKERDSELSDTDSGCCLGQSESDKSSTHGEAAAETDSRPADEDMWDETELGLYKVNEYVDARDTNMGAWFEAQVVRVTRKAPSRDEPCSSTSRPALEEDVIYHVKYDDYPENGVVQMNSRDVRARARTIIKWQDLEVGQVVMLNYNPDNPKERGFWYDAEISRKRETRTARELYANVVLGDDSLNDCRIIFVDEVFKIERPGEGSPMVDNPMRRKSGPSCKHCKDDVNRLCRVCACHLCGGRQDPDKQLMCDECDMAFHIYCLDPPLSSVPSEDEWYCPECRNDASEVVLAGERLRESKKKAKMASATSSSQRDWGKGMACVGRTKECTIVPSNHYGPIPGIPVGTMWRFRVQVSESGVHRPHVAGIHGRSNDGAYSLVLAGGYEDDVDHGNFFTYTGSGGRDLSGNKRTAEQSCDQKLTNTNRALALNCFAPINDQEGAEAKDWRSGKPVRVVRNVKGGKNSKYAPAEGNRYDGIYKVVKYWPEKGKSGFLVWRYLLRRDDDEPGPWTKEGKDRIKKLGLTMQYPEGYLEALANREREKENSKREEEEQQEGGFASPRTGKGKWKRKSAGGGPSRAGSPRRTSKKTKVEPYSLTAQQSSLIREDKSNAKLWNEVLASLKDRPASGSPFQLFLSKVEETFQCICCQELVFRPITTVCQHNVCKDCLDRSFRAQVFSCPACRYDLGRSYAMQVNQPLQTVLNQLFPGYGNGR

SMILES | inhibition
N#CCCN(C(=O)COC(=O)C(O)(c1ccccc1)c1ccccc1)c1ccc(F)cc1 | inactive: -1.2%
CN(C(=O)Cc1ccc(Cl)c(Cl)c1)[C@H]1CC[C@@]2(CCCO2)C[C@@H]1N1CCCC1 | inactive: -0.27%
CN(C)C(=O)c1cc([N+](=O)[O-])cc2c1-c1c(cc([N+](=O)[O-])cc1[N+](=O)[O-])C2=O | inactive: -7.2%
O=[N+]([O-])c1ccc2c(c1)nnn2O | inactive: 2.47%
O=P(Nc1nccs1)(Oc1ccccc1)Oc1ccccc1 | inactive: -1.13%
CCOP1(=S)c2c(C)nn(CCC#N)c2N=C(c2ccccc2F)N1C (stereo not given) | inactive: 0.99%
O=C(O)COc1ccc([As](=O)(O)O)cc1[N+](=O)[O-] | active: 40.2%
Nc1ccccc1[As](=O)(O)c1ccccc1 | inactive: -0.44%
Nc1cccc2c([As](=O)(O)O)cccc12 | inactive: 19.1%
Cc1ccc(NCCc2c([N+](=O)[O-])cc([N+](=O)[O-])cc2[N+](=O)[O-])cc1 | inactive: -7.73%
CCCOP(=S)(Nc1nc(N)cc(=O)[nH]1)OCCC | inactive: 6.97%
CCOP(=O)(Nc1cccc2ccccc12)OCC | inactive: -0.34%
COc1cc(C2NCCC3(OCCO3)C2(C)C)cc(OC)c1OC (stereo not given) | inactive: -2.22%
O=C(OC1CN2CCC1CC2)c1ccc(Cl)cc1 (stereo not given) | inactive: 3.43%
CS(=O)(=O)c1ccc(Cl)c(NC(=O)COC(=O)C(O)(c2ccccc2)c2ccccc2)c1 | inactive: 2.2%
COc1cc(C(=O)NCC2(N3CCOCC3)CCCCC2)cc(Cl)c1OC(C)C | inactive: 7.97%
O=[As](O)(O)c1cccnc1 | inactive: -2.21%
O=[As](O)(c1cccc(O)c1)c1cccc(O)c1 | inactive: -1.96%
Cc1cccc(OCC(=O)OC2CN3CCC2CC3)c1 (stereo not given) | inactive: -1.77%
COc1ccccc1CNC(=O)COC(=O)C(O)(c1ccccc1)c1ccccc1 | inactive: 0.79%
CN(C(=O)Cc1ccc(Cl)c(Cl)c1)C1CCCC[C@@H]1N1CCCC1 (stereo not given in full) | inactive: 1.02%
CN(C(=O)Cc1ccc(Cl)c(Cl)c1)[C@@H]1CCCC[C@H]1N1CCCC1 | inactive: 1.49%
CC(C)/C=N\N=C(\N)N[N+](=O)[O-] | inactive: -1.72%

SMILES | inhibition
CC1(CBr)Cn2c(nc3ccccc3c2=O)S1 (stereo not given) | inactive: 0.29%
CCOP(=O)(NC(=NC(C)c1ccccc1)NC(C)c1ccccc1)OCC (stereo not given) | inactive: -2.02%
CCC1=CC2Cc3nc4ccc(Cl)cc4c(N)c3C(C1)C2 (stereo not given) | inactive: -1.84%
O=P1(Nc2ccccn2)COc2ccccc2OC1 | inactive: 0.24%
CN(CCCl)Cc1cc(Cl)c(NC2=NCCN2)c(Cl)c1 | inactive: -3.5%
CCOP(=O)(Nc1ccc(C)cn1)OCC | inactive: 0.9%
CC(C)(C)C(=O)NC(Sc1ncccn1)C(Cl)(Cl)Cl (stereo not given) | inactive: 2.6%
Clc1n[nH]nc1-c1nn[nH][15n]1 | inactive: 1.14%
O=P1(N(CCCl)CCCl)NCCC(C(F)(F)F)O1 (stereo not given) | inactive: -0.1%
Cc1ccc(S(=O)(=O)N(CCCN)CCCc2c(C)nc(N)[nH]c2=O)cc1 | inactive: -1.61%
O=P1(Nc2ncccn2)COc2ccccc2OC1 | inactive: 2.75%
Nc1cccc([As](=O)(O)c2ccccc2)c1 | inactive: -0.93%
NS(=O)(=O)c1cccc(NC(=O)COC(=O)C(O)(c2ccccc2)c2ccccc2)c1 | inactive: -0.66%
O=P1(Nc2ccc(Br)cn2)COc2ccccc2OC1 | inactive: -4.38%
O=[As](O)(c1cccs1)c1cccs1 | inactive: 0.29%
Cc1ccc(OCC(=O)OC2CN3CCC2CC3)cc1 (stereo not given) | inactive: 13.4%
Cc1ccc(C(=O)OC2CN3CCC2CC3)cc1 (stereo not given) | inactive: 1.56%
CC1CCC(C(C)C)C(OP(=O)(Nc2ccccn2)c2ccccc2)C1 (stereo not given) | inactive: 0.88%
Cc1nn(-c2ccccc2)c2c1P(=O)(N1CCOCC1)N(C)C(c1ccccc1)=N2 (stereo not given) | inactive: 1.71%
CN(C)C1(CNC(=O)c2ccc(S(C)(=O)=O)cc2)CCCCC1 | inactive: 4.69%
CCCC1OP(=O)(Nc2ccccc2)OCC1CC (stereo not given) | inactive: 1.12%
O=C(/C=C/c1ccccc1)OC1CN2CCC1CC2 (stereo not given) | inactive: -2.1%
